Reference: patent US20050163773A1, “Methods and pharmaceutical compositions for dopaminergic modulation of t-cell adhesion and activity” (priority 2001, published 2005)

System: Jurkat T-cell leukemia cells

Compound: NCCc1ccc(O)c(O)c1 [Dopamine]
- cellular death in Jurkat T-cell leukemia cells: induces cellular death
